Ab-14 light chain CDR variants: yeast mating affinities

From the AlphaSeq antibody data of Engelhart et al. 2022 (doi:10.1038/s41597-022-01779-4), copy in the FLAb collection.

All variants were tested on one target, the spike HR2 peptide PDVDLGDISGINAS (SARS-CoV-2).

Ab-14 is the parent antibody, in scFv form: VH, then a 15-residue (Gly4Ser)3 linker, then VL. The heavy chain is unchanged in all variants.
VH: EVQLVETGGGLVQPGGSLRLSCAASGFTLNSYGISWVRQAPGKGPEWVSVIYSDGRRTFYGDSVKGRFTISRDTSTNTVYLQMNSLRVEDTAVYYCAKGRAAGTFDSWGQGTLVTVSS
VL: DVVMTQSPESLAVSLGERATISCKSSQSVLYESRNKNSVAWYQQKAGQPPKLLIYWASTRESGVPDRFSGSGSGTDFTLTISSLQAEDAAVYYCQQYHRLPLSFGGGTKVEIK

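The starting antibody came from a phage panning campaign against this peptide. The library (AAYL50) carries one to three amino acid substitutions per variant, with no insertions or deletions. AlphaSeq pools MATa yeast showing the antibodies with MATalpha yeast showing the peptide. Mating (16 h, 30 °C) was followed by selection of diploids and sequencing of their barcodes. A regression on co-assayed BCL2-family reference pairs converts the normalised counts of each replicate to an apparent Kd. Mating was done three times.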

Positions count from residue 1 of the parent VL; K36P puts P in place of K. All variants listed here change K36 of the VL, counted from its first residue. Each Kd is an estimate from the mating assay, the geometric mean of the replicates in which the pair was seen; lower is stronger. Where no diploid with the target was found in any replicate, the entry reads "nd": below detection, most likely a poor binder, though not proof of it. Entries are sorted by rising average, undetected variants last.

With K36P/E61V/Q96D the result was 1.2 nM (3 of 3 replicates).
With K36S the result was 1.9 nM (3 of 3 replicates).
With S28A/K36Q/W56A the result was 2.0 nM (3 of 3 replicates).
With K36I/S38N/S103L the result was 5.3 nM (3 of 3 replicates).
With K36P the result was 5.5 nM (3 of 3 replicates).
With V29Q/K36G the result was 6.3 nM (3 of 3 replicates).
With K36F/W56L/S62M the result was 8.5 nM (3 of 3 replicates).
With V29D/K36H the result was 11 nM (3 of 3 replicates).
With L30C/S33W/K36A the result was 11 nM (3 of 3 replicates).
With Q27C/K36S the result was 13 nM (3 of 3 replicates).
With Q27W/K36N/L100D the result was 13 nM (3 of 3 replicates).
With K36H/S58T/E61A the result was 13 nM (3 of 3 replicates).
With S25N/K36I/V39D the result was 18 nM (3 of 3 replicates).
With R34E/K36S/E61D the result was 22 nM (3 of 3 replicates).
With S28P/K36G the result was 26 nM (3 of 3 replicates).
With K36L the result was 29 nM (3 of 3 replicates).
With K36F/L100C the result was 34 nM (3 of 3 replicates).
With K36G/S103A the result was 38 nM (3 of 3 replicates).
With R34P/K36S/R99H the result was 38 nM (3 of 3 replicates).
With S33R/K36G/T59M the result was 69 nM (3 of 3 replicates).
With R34P/K36L/Q96S the result was 78 nM (3 of 3 replicates).
With Q27W/K36R/S62C the result was 130 nM (3 of 3 replicates).
With K24Y/K36N/S62W the result was 190 nM (1 of 3 replicates).
With V29C/K36V/R99L the result was 230 nM (3 of 3 replicates).
With K36W/A57S/Q96M the result was 230 nM (2 of 3 replicates).
With N35M/K36C/S38G the result was 260 nM (3 of 3 replicates).
With K36W/N37T/T59M the result was 320 nM (3 of 3 replicates).
With K24A/S26V/K36T the result was 500 nM (3 of 3 replicates).
With S28C/K36V/R99Y the result was 500 nM (3 of 3 replicates).
With K36W/Q96P/Y97S the result was 1.0 µM (3 of 3 replicates).
With R34N/K36D/R60T the result was 1.1 µM (3 of 3 replicates).
With S26I/K36H/H98D the result was 1.8 µM (1 of 3 replicates).
With Q27F/K36A/L100V the result was 1.8 µM (2 of 3 replicates).
With K36L/S38N/R60Y the result was 2.9 µM (1 of 3 replicates).
With K36N/A57M/Q96S the result was 3.4 µM (2 of 3 replicates).
With E32N/K36S/S38L the result was 11 µM (1 of 3 replicates).
With S26N/K36I/Y97Q the result was 11 µM (1 of 3 replicates).
With K36E/A40F/Y97F the result was 17 µM (1 of 3 replicates).
With K36T/Q95M the result was nd (0 of 3 replicates).
With K36Q/Q96R the result was nd (0 of 3 replicates).
With N35Y/K36R/A40G the result was nd (0 of 3 replicates).
With Y31T/K36R/S38I the result was nd (0 of 3 replicates).
With K36V the result was nd (0 of 3 replicates).
With S25R/S33F/K36S the result was nd (0 of 3 replicates).
With R34W/K36T/A40M the result was nd (0 of 3 replicates).
With S28R/K36Q/Q96L the result was nd (0 of 3 replicates).
With Q27A/R34N/K36Y the result was nd (0 of 3 replicates).
With K36A/Y97H/R99D the result was nd (0 of 3 replicates).
With K36I/A57Q/P101W the result was nd (0 of 3 replicates).
With Q27K/R34D/K36L the result was nd (0 of 3 replicates).
With K36F/S62W/Y97A the result was nd (0 of 3 replicates).

Again, the first 3 entries without any signal:

changes,apparent Kd,seen in
K36T/Q95M,nd,0/3
K36Q/Q96R,nd,0/3
N35Y/K36R/A40G,nd,0/3

For reference, the parent read 4.4 nM as the reference entry and 48 nM as a member of this library. Empty control strains, which show no peptide, gave a signal in 18% of pairings with library AAYL50; the median was 15 µM and 95% of these signals were weaker than 970 nM. No background was subtracted.